The source of these data is US20120059162A1, “FUSED IMIDAZOLE DERIVATIVE HAVING TTK INHIBITORY ACTION” (Oncotherapy Science, Inc., priority 2009, published 2012).

Sequences of proteins named here, by UniProt entry; tags and fusion partners are left off.
UniProt P33981, whole entry: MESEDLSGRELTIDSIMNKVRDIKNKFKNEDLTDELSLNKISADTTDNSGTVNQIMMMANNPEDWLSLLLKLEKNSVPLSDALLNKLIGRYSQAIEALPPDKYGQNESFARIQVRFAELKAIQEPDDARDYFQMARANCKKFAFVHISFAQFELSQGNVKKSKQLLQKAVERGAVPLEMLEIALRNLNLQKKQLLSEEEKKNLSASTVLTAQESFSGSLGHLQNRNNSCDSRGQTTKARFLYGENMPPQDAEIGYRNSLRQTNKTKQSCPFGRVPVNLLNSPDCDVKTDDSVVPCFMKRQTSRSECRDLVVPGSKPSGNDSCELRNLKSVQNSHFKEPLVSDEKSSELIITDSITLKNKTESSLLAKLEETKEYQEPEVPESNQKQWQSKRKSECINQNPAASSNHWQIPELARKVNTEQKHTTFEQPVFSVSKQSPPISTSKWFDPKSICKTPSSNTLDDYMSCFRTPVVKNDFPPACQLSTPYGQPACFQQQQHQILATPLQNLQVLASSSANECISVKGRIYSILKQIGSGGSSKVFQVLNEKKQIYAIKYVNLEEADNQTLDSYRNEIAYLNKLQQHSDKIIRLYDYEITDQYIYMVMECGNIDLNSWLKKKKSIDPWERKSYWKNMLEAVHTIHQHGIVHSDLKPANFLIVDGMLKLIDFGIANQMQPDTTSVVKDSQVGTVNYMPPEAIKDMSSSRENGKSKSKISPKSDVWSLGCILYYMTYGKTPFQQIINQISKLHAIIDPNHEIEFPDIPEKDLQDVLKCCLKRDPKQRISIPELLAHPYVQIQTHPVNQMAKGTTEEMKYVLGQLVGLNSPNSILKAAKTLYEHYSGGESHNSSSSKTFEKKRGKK

The assay deals with TTK (Homo sapiens, UniProt P33981). Nature of the assay: TTK assay: screening of TTK kinase activity suppressing action using p38 MAPK peptide. Format: biochemical. As to conditions: read-out: TTK IC50.

Where two headings read alike, the source gives them in different places.

As a reminder, the IC50 is the point on the concentration scale where inhibition reaches its midpoint. Consider `CC[C@H](C)Nc1cc(NCC2CCOCC2)c2ncc(-c3ccc(C(=O)NC4CC4)cc3)n2n1`, for which the IC50 (p38 MAPK peptide substrate) was found to be 8.6 nM. On to `N#Cc1ccc(-c2cn3c(-c4ccc(C(=O)NC5CC5)cc4)cnc3c(NCC3CCC(CN)CC3)n2)cc1` (stereo not shown), for which the IC50 (p38 MAPK peptide substrate) was determined as 19.3 nM. In the case of `COC(=O)CCCNc1cc(NC2CCCCC2)nn2c(-c3ccc(C(=O)NC4CC4)cc3)cnc12`, for the setting “p38 MAPK peptide substrate”, the concentration for half-maximal inhibition (IC50) came out at 13.6 nM. `O=C(NC1CC1)c1ccc(-c2cnc3c(NCC4CCOCC4)cc(-c4ccc(C(F)(F)F)cc4)nn23)cc1`: the IC50 came out at 4.4 nM.
